Only a part is listed here, and it is no random draw. Some results for these compounds are left out of this collection, so the calls shown say nothing about other tests. Active and inactive are the calls of the source.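 Rule for the calls: active = activation above the average of all compounds screened plus 3 SD, cutoff fixed separately per campaign (cut at about 7.5% in these data); inactive = the rest.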
Assay: FXN promoter activators, primary screen, cell-based, luciferase luminescence, HEK293 lucGAA850 (AID 540364);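 note: 0% = DMSO wells and 100% = 10 µM SAHA wells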
Conditions: HEK293 lucGAA850 FXN promoter luciferase reporter, 24 h; at 6 µM; hits give high values; percent of 10 µM SAHA response

Structure (SMILES) | activation
O=C(OC1CN2CCC1CC2)C(CO)(c1ccccc1)c1ccccc1 (stereo unspecified) | inactive: 1.45%
C=C(C)C#CC(O)(C(=O)OC1CCN(C)CC1)c1ccccc1 (stereo unspecified) | inactive: 1.14%
COc1ccc(Br)c(C(=O)NCC2(N3CCCCC3)CCCCC2)c1 | inactive: -1.02%
O=C(OCCN1CCCC1)C(O)(c1ccccc1)c1ccccc1 | inactive: 2.58%
CC(C)Oc1ccc(C(=O)NCC2(N(C)C)CCCCC2)cc1 | inactive: 1.42%
CN(C)c1cccc(C(=O)NCC2(N(C)C)CCCCC2)c1 | inactive: -0.3%
CN(C)C1(CNC(=O)c2ccc(Br)cc2)CCCCC1 | inactive: -0.03%
COc1cc(C(=O)NCC2(N(C)C)CCCCC2)c([N+](=O)[O-])cc1OC | inactive: 2.5%
COc1ccc(Cl)cc1C(=O)NCC1(N(C)C)CCCCC1 | inactive: -0.46%
COc1cccc(C(=O)NCC2(N3CCCCC3)CCCCC2)c1 | inactive: 2.52%
O=C(NCC1(N2CCCCC2)CCCCC1)c1cccc(Cl)c1 | inactive: 2.08%
CN(C)c1ccc(C(=O)NCC2(N(C)C)CCCCC2)cc1 | inactive: 1.52%
CN(C)C1CCCC1OC(=O)C(O)(c1ccccc1)c1ccccc1 (stereo unspecified) | inactive: -0.55%
Cc1ccccc1C(=O)NCC1(N2CCCCC2)CCCCC1 | inactive: 0.59%
O=C(NCC1(N2CCCCC2)CCCCC1)c1cc(F)c(F)cc1Cl | inactive: 2.65%
C=CCN1CCN(CCOC(=O)C(O)(c2ccccc2)c2ccccc2)CC1 | inactive: 0.38%
COc1ccc(C(=O)NCC2(N(C)C)CCCCC2)cc1 | inactive: 1.61%
O=C(NCC1(N2CCCCC2)CCCCC1)c1cccc(Br)c1 | inactive: 3.1%
CCN1CCCC(OC(=O)C2(O)c3ccccc3C=Cc3ccccc32)C1 (stereo unspecified) | inactive: -0.7%
Cc1cc(C(=O)NCC2(N3CCCCC3)CCCCC2)ccc1[N+](=O)[O-] | inactive: 2.78%
O=C(NCC1(N2CCCCC2)CCCCC1)c1cc([N+](=O)[O-])ccc1Cl | inactive: -0.78%
CN1[C@@H]2CC[C@H]1CC(OC(=O)C(O)(c1ccccc1)c1ccccc1)C2 (stereo partly specified) | inactive: -0.71%
COc1cc(SC)ccc1C(=O)NCC1(N(C)C)CCCCC1 | inactive: 1.65%
CCN(CC)CC(C)C(C)OC(=O)C(O)(c1ccccc1)c1ccccc1 (stereo unspecified) | inactive: -1.67%
CC(C)N1C(=O)CC2(CCN(CCOC(=O)C(O)(c3ccccc3)c3ccccc3)CC2)C1=O | inactive: 0.03%
Cc1ccc(C(=O)NCC2(N3CCCCC3)CCCCC2)cc1 | inactive: 1.68%

— PubChem BioAssay AID540364 (The Scripps Research Institute Molecular Screening Center, 2011)
